Among the data in patent US9586925B2 (priority 2013, dated 2017) are IC50 values, retold here.

Sequences of proteins named here, by UniProt entry; tags and fusion partners are left off. Residues count along the entry.
UniProt P06276, 29-602 limits assumed: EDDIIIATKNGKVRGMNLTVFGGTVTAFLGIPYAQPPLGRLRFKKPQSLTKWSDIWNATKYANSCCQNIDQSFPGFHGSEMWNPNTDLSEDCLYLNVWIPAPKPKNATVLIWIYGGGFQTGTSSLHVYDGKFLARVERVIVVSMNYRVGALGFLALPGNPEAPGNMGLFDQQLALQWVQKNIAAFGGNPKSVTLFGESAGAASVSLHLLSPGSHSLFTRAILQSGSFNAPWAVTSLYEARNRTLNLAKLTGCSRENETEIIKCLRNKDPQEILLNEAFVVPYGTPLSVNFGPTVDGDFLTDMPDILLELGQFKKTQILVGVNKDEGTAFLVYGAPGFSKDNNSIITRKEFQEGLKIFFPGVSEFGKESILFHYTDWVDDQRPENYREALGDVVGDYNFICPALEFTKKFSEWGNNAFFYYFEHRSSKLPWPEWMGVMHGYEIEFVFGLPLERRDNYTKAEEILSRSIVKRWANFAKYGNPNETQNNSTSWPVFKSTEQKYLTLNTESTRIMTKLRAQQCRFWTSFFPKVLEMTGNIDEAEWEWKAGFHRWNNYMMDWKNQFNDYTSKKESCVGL

Structures are written as SMILES.

In assay [1] the target is human recombinant butyrylcholinesterase (Homo sapiens (Human), UniProt P06276). It is filed as biochemical. The conditions noted are these: read-out: BCHE Inhibitory Activity IC50.
The next assay concerns the target BCHE (Homo sapiens (Human), UniProt P06276). Particulars: background statement; cited from earlier work.

What is called IC50 is the midpoint of a concentration-inhibition curve. In the case of `CCN(C)C(=O)Oc1cccc([C@H](C)N(C)C)c1` [Rivastigmine, reference compound], the IC50 in assay [1] was 11 µM; on BCHE, over 10 µM.
